{"source": "patent US11555009B2", "about": "“2-(substituted benzene matrix) aromatic formate FTO inhibitor, preparation method therefor, and applications thereof” (SHANGHAI INSTITUTE OF MATERIA MEDICA, CHINESE ACADEMY OF …, priority 2017, dated 2023)", "target": "FTO (Homo sapiens (Human), UniProt Q9C0B1)", "assay": "FTO enzyme inhibition (m6A dsDNA substrate, DpnII digestion, gel readout)", "format": "biochemical", "data": [{"smiles": "Cc1cc(-c2cn[nH]c2)cc(C)c1Nc1ccccc1C(=O)O", "values": [{"measurement": "Inhibition rate", "setting": "in vitro inhibition rate on FTO, compound at 50 μM", "value": 100, "unit": "%"}, {"measurement": "IC50", "setting": "read-out: IC50 for inhibition of FTO enzyme activity", "value": "< 5", "unit": "µM"}]}]}
